Assays:
^FlagDNAJB1^WT (human) = ^FlagDNAJB1^WT (human) (UniProt P25685); assay: affinity purification with mass spectrometry; TMT-AP-MS comparing ^FlagDNAJB1 WT vs. H32Q, in the absence and presence of DSP crosslinking of the cells; RIPA lysis and washes, M2 anti-Flag beads; two 10 cm plates per condition; three biological replicates
^FlagDNAJB1^WT = biological target: T1, ^FlagDNAJB1^WT (human, UniProt P25685 1-340); assay: as above; conditions: partners not purified
T1 construct: DNAJB1, human Class B Hsp40; amplified from cDNA derived from HEK293T cells and inserted into pFlag.CMV2; source: HEK293T, transfected (calcium phosphate), in lysate; not shown: Flag, N-terminal, kept

Row | fold change of recovery with DNAJB1^WT against DNAJB1^H32Q, +DSP (^FlagDNAJB1^WT (human)) [fold] | fold change of recovery with DNAJB1^WT against DNAJB1^H32Q, −DSP (^FlagDNAJB1^WT (human)) [fold] | fold change of recovery with DNAJB1^WT against DNAJB1^H32Q, +DSP (^FlagDNAJB1^WT) [fold] | fold change of recovery with DNAJB1^WT against DNAJB1^H32Q, −DSP (^FlagDNAJB1^WT) [fold] | Molecule
1 | 2.3 | 5.1 |  |  | BCKDK (from UniProt O14874 31-412) (natural protein; other documents disagree on this pair)
2 |  |  | 2.6 ± 1.3 | 3.3 ± 2.2 | TTLL12 (natural protein, human (endogenous in HEK293T), UniProt Q14166 1-644, looked up) MEAERGPERRPAERSSPGQTPEEGAQALAEFAALHGPALRASGVPERYWGRLLHKLEHEVFDAGEVFGIMQVEEVEEEEDEAAREVRKQQPNPGNELCYKVIVTRESGLQAAHPNSIFLIDHAWTCRVEHARQQLQQVPGLLHRMANLMGIEFHGELPSTEAVALVLEEMWKFNQTYQLAHGTAEEKMPVWYIMDEFGSRIQHADVPSFATAPFFYMPQQVAYTLLWPLRDLDTGEEVTRDFAYGETDPLIRKCMLLPWAPTDMLDLSSCTPEPPAEHYQAILEENKEKLPLDINPVVHPHGHIFKVYTDVQQVASSLTHPRFTLTQSEADADILFNFSHFKDYRKLSQERPGVLLNQFPCENLLTVKDCLASIARRAGGPEGPPWLPRTFNLRTELPQFVSYFQQRERWGEDNHWICKPWNLARSLDTHVTKSLHSIIRHRESTPKVVSKYIESPVLFLREDVGKVKFDIRYIVLLRSVRPLRLFVYDVFWLRFSNRAFALNDLDDYEKHFTVMNYDPDVVLKQVHCEEFIPEFEKQYPEFPWTDVQAEIFRAFTELFQVACAKPPPLGLCDYPSSRAMYAVDLMLKWDNGPDGRRVMQPQILEVNFNPDCERACRYHPTFFNDVFSTLFLDQPGGCHVTCLV
